System: MDA‐MB‐468 cells
Assay: Coculture cell killing assay, HER2‐negative cells
Type: cell-based, human
Conditions: coculture KPL‐4 + MDA‐MB‐468; 10 nM ADC, 5 days

T‐DM1: FDA‐approved HER2‐targeting ADC composed of trastuzumab, a non‐cleavable linker, and tubulin polymerization inhibitor DM1
Killing of MDA‐MB‐468 cells in coculture (bystander killing): did not show a bystander killing effect
